This is an account of results in PubChem BioAssay AID588453 (National Center for Advancing Translational Sciences (NCATS), 2011).

Chains of the proteins cited; added tags and fusions are not shown.
UniProt O89049, whole entry: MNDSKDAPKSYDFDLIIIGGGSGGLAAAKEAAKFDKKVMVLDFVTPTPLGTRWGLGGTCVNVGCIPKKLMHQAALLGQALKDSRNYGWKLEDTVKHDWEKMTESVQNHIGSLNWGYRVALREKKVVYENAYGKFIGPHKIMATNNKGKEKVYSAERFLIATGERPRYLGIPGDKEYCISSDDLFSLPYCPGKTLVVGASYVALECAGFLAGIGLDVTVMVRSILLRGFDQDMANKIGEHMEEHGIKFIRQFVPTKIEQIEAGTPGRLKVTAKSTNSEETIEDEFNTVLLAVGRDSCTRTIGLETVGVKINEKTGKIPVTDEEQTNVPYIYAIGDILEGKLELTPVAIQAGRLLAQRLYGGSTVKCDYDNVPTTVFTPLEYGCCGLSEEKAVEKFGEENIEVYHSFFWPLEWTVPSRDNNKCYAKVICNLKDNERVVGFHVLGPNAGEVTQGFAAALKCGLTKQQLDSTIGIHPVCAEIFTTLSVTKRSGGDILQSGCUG

This assay has as its target Thioredoxin reductase 1, cytoplasmic (Rattus norvegicus) (UniProt O89049). The assay is described as follows: qHTS Assay for Inhibitors of Mammalian Selenoprotein Thioredoxin Reductase 1 (TrxR1): qHTS. Note: nearly all actives have a fitted effect of over 65% in size. The following applies: recombinant rTrxR1, NADPH fluorescence consumption, selenite substrate. Background: qHTS replaces the single test concentration by a dilution series.

Where [1] appears, read: at 114 µM (top of the series) unless noted.

The list shows a part of the results, in another mix than the full data. Some results for these compounds are left out of this collection, so the calls shown say nothing about other tests. Inconclusive results are not listed. Activity calls are given as the source filed them. Calls come from the whole dose curve; as a rule, active = well fitted inhibition curve with a large enough effect; inconclusive = small, poorly fitted or top-dose-only effect; inactive = no such curve, though single readings can be large or run the other way.
% is set by controls: 0 for no effect and ±100 for the full control effect.

For the compound `CCOc1cccc(C(=O)NCC2(N(C)C)CCCCC2)c1`, under setting [1], the activity change, negative = inhibition was inactive: 19.6%.

For the compound `COc1ccc(C(=O)NCC2(N(C)C)CCCCC2)cc1`, under setting [1], the activity change, negative = inhibition is inactive: 9.34%.

As to `O=C(NCC1(N2CCCCC2)CCCCC1)c1cccc(Br)c1`, under setting [1], the activity change, negative = inhibition is inactive: 13.3%.

As to `Cc1cc(C(=O)NCC2(N3CCCCC3)CCCCC2)ccc1[N+](=O)[O-]`, the activity change, negative = inhibition under setting [1] is inactive: 23.6%.

On to `CCN1CCCC(OC(=O)C2(O)c3ccccc3C=Cc3ccccc32)C1` (configuration not stated), for which, under setting [1], the activity change, negative = inhibition was inactive: 17.8% [at 57.1 µM].

Regarding `O=C(NCC1(N2CCCCC2)CCCCC1)c1cc(F)c(F)cc1Cl`, the activity change, negative = inhibition under setting [1] is inactive: 19.3% [at 57.1 µM].

Turning to `C=CCN1CCN(CCOC(=O)C(O)(c2ccccc2)c2ccccc2)CC1`, the activity change, negative = inhibition under setting [1] is inactive: -4.12% [at 57.1 µM].

As to `CCCCOc1ccccc1C(=O)NCC1(N(C)C)CCCCC1`, the activity change, negative = inhibition under setting [1] was inactive: 10.9%.

For `CN(C)C1CCCC1OC(=O)C(O)(c1ccccc1)c1ccccc1` (configuration not stated), the activity change, negative = inhibition under setting [1] is inactive: -4.93%.

With `CN(C)c1ccc(C(=O)NCC2(N(C)C)CCCCC2)cc1`, under setting [1], the activity change, negative = inhibition is inactive: -6.78% [at 57.1 µM].

Take `CN(C)C1(CNC(=O)c2ccccc2[N+](=O)[O-])CCCCC1`: the activity change, negative = inhibition under setting [1] is inactive: -9%.

In the case of `Cc1ccccc1C(=O)NCC1(N2CCCCC2)CCCCC1`, the activity change, negative = inhibition under setting [1] is inactive: 10.2%.

Regarding `Cc1ccc(C(=O)NCC2(N3CCCCC3)CCCCC2)cc1`, the activity change, negative = inhibition under setting [1] is inactive: 13.8%.

For the compound `CN(C)C1(CNC(=O)c2ccccc2F)CCCCC1`, the activity change, negative = inhibition under setting [1] is inactive: 13.7%.

Consider `COc1cc(SC)ccc1C(=O)NCC1(N(C)C)CCCCC1`, for which the activity change, negative = inhibition under setting [1] was inactive: 12.5%.

Regarding `CCN(CC)CC(C)C(C)OC(=O)C(O)(c1ccccc1)c1ccccc1` (configuration not stated), the activity change, negative = inhibition under setting [1] is inactive: 2.41%.

Consider `CN(C)C1(CNC(=O)c2cccc(Cl)c2)CCCCC1`, for which the activity change, negative = inhibition under setting [1] was inactive: 21.8%.

On to `CC(C)N1C(=O)CC2(CCN(CCOC(=O)C(O)(c3ccccc3)c3ccccc3)CC2)C1=O`, for which the activity change, negative = inhibition under setting [1] was inactive: 5.94% [at 57.1 µM].

With `CN1[C@@H]2CC[C@H]1CC(OC(=O)C(O)(c1ccccc1)c1ccccc1)C2` (some centres not stated), the activity change, negative = inhibition under setting [1] was inactive: 6.29%.

In the case of `O=C(NCC1(N2CCCCC2)CCCCC1)c1cc([N+](=O)[O-])ccc1Cl`, under setting [1], the activity change, negative = inhibition is inactive: 12.9% [at 57.1 µM].

Turning to `O=C(OCCN1CCCC1)C(O)(c1ccccc1)c1ccccc1`, the activity change, negative = inhibition under setting [1] is inactive: 20.1% [at 57.1 µM].

As to `CC(C)Oc1ccc(C(=O)NCC2(N(C)C)CCCCC2)cc1`, the activity change, negative = inhibition was inactive: 12.1% (at 57.1 µM (top of the series)) and inactive: 19.8% (at 114 µM (top of the series)).

On to `CN(C)c1cccc(C(=O)NCC2(N(C)C)CCCCC2)c1`, for which, under setting [1], the activity change, negative = inhibition is inactive: -13.6%.

Consider `COc1ccc(Br)c(C(=O)NCC2(N3CCCCC3)CCCCC2)c1`, for which the activity change, negative = inhibition under setting [1] is inactive: -13.7%.

In the case of `COc1cc(C(=O)NCC2(N(C)C)CCCCC2)cc(OC)c1OC`, under setting [1], the activity change, negative = inhibition is inactive: 25.2%.

For the compound `Cc1cccc(C(=O)NCC2(N(C)C)CCCCC2)c1`, the activity change, negative = inhibition under setting [1] was inactive: 28.7%.

Turning to `CC(C)COc1ccc(C(=O)NCC2(N(C)C)CCCCC2)cc1`, under setting [1], the activity change, negative = inhibition is inactive: 18.2%.

For `COc1cccc(C(=O)NCC2(N3CCOCC3)CCCCC2)c1`, the activity change, negative = inhibition under setting [1] is inactive: -5.62%.

Regarding `O=C(OC1CN2CCC1CC2)C(CO)(c1ccccc1)c1ccccc1` (configuration not stated), the activity change, negative = inhibition under setting [1] is inactive: -1.53%.

As for `O=C(NCC1(N2CCCCC2)CCCCC1)c1cccc(Cl)c1`, the activity change, negative = inhibition under setting [1] was inactive: 5.75%.

For `COc1ccc(Cl)cc1C(=O)NCC1(N(C)C)CCCCC1`, under setting [1], the activity change, negative = inhibition is inactive: -11.6% [at 57.1 µM].

In the case of `COc1cccc(C(=O)NCC2(N3CCCCC3)CCCCC2)c1`, the activity change, negative = inhibition under setting [1] is inactive: 11.5% [at 57.1 µM].

For the compound `COc1ccc(C(=O)NCC2(N(C)C)CCCCC2)cc1Cl`, under setting [1], the activity change, negative = inhibition was inactive: 14.6%.

As to `COc1cc(C(=O)NCC2(N(C)C)CCCCC2)c([N+](=O)[O-])cc1OC`, the activity change, negative = inhibition under setting [1] was inactive: 8.57%.

`O=C(CBr)c1ccc(Cl)cc1`: the activity change, negative = inhibition under setting [1] was inactive: -11.7%.

Consider `CN(C)C1(CNC(=O)c2ccc(Br)cc2)CCCCC1`, for which the activity change, negative = inhibition under setting [1] is inactive: 33.1%.
